Amino acid sequences for entries named in this document (tags omitted). Residues count along the entry.
UniProt P21453, whole entry: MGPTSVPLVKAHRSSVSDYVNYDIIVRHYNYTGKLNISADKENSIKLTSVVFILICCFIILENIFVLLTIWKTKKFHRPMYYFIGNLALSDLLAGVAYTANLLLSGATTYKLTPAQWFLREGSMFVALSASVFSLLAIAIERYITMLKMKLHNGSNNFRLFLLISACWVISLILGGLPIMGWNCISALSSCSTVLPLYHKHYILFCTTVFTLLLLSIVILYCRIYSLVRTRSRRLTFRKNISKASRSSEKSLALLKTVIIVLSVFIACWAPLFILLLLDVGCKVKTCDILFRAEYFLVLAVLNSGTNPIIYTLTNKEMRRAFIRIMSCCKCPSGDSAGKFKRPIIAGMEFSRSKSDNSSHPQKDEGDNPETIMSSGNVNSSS
UniProt P59768, 2-68 partner limits assumed: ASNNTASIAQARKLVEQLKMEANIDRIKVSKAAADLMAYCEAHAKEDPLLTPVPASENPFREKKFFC
UniProt P62873, 2-340 partner limits assumed: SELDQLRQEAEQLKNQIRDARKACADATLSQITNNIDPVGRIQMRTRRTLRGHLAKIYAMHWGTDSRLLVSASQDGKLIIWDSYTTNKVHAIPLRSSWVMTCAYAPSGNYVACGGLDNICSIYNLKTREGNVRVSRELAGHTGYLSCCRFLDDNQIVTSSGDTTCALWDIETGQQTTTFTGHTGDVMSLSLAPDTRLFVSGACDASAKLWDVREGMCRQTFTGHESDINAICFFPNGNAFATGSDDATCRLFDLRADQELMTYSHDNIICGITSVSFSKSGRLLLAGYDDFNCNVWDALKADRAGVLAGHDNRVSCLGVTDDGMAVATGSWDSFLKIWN
UniProt P08754, 2-354 partner limits assumed: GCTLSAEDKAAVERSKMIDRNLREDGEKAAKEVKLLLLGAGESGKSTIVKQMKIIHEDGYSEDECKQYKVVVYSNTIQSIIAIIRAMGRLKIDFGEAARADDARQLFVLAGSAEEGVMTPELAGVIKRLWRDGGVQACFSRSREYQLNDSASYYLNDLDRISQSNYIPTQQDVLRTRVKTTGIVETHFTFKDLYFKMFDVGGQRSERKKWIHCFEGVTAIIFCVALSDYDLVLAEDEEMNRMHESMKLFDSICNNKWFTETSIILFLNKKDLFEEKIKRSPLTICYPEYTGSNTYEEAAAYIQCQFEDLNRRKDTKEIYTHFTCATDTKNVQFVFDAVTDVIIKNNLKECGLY
UniProt P63096, 2-354 partner limits assumed: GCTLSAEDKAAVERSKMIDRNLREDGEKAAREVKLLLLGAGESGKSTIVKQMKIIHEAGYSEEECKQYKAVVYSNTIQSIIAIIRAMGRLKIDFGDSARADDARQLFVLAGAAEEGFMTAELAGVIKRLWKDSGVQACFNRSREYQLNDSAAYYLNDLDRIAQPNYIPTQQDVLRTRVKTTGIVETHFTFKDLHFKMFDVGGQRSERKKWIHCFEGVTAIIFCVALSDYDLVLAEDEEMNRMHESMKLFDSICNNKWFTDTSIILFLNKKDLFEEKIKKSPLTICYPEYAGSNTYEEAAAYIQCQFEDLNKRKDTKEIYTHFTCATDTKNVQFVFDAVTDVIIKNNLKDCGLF
UniProt P04899, 2-355 partner limits assumed: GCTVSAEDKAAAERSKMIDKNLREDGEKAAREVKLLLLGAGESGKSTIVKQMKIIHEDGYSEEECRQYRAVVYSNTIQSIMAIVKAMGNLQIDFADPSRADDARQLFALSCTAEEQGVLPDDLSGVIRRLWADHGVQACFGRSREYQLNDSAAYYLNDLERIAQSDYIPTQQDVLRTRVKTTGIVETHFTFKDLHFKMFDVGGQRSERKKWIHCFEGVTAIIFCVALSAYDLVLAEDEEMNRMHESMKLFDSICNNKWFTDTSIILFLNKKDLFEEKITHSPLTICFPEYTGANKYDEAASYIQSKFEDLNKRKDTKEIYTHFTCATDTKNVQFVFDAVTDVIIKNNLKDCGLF

In US9885703B2, “Evaluation method and screening method for sphingosine-1-phosphate 1 (S1P1) receptor agonists” (MEIJI SEIKA PHARMA CO., LTD., priority 2013, dated 2018):

Experiments:
[1] = target: S1P1 receptor coupled to Gαi2 (Homo sapiens, UniProt P21453); test: Gα subtype-specific S1P1 receptor agonist activity (BRET, NPL 7), HEK 293T cells co-expressing S1P1 receptor, Gαi2, Gγ2 and Gβ1; assay type: cell-based; conditions: read-out: EC50 S1P1-Gαi2, Gαi2 expressed
[2] = target: S1P1 receptor (Homo sapiens, UniProt P21453); test: General S1P1 receptor agonist activity, CHO cells expressing S1P1 receptor (method of Experimental Example 1 of PTL 1); assay type: cell-based; conditions: read-out: S1P1 receptor agonist activity, method of PTL 1
[3] = Blood concentration in the guinea pig cardiotoxicity model; conditions: guinea pigs, 0.01 mg/kg infusion for 10 minutes
[4] = target: S1P1 receptor coupled to Gαi1 (Homo sapiens, UniProt P21453); test: Gα subtype-specific S1P1 receptor agonist activity (BRET, NPL 7), HEK 293T cells co-expressing S1P1 receptor, Gαi1, Gγ2 and Gβ1; assay type: cell-based; conditions: read-out: EC50 S1P1-Gαi1, Gαi1 expressed
[5] = system: number of lymphocytic cells in blood; test: Efficacy evaluation: number of lymphocytic cells in blood after oral administration; conditions: male SD rats
[6] = target: S1P1 receptor coupled to Gαi3 (Homo sapiens, UniProt P21453); test: Gα subtype-specific S1P1 receptor agonist activity (BRET, NPL 7), HEK 293T cells co-expressing S1P1 receptor, Gαi3, Gγ2 and Gβ1; assay type: cell-based; conditions: read-out: EC50 S1P1-Gαi3, Gαi3 expressed
[7] = system: complete AV block; test: Cardiotoxicity evaluation: AV block in guinea pigs under anesthesia; conditions: anesthetized guinea pigs, 0.01 mg/kg by infusion for 10 minutes, four cases

| EC50 [1] [nM] | EC50 [2] [nM] | EC50 [4] [nM] | EC50 [6] [nM] | Compound | blood concentration after 1 hour ([3]; after 1 hour) [nM] | blood concentration when the administration was completed ([3]; end of administration) [nM] | dose for suppressing the number of lymphocytic cells by 50% (ED50) after 6 hours ([5]; 6 hours) [mg/kg] | dose for suppressing the number of lymphocytic cells by 50% (ED50) after 24 hours ([5]; 24 hours) [mg/kg] | effective blood concentration after 24 hours ([5]; 24 hours, calculated) [nM] | expression of complete AV block (cases) [7] |
| --- | --- | --- | --- | --- | --- | --- | --- | --- | --- | --- |
| 6 | 9.2 | 640 | 19 | CC(C)Oc1ccc(-c2cnc(-c3ccc(CN4CC(C(=O)O)C4)cc3)s2)cc1 | 27 | 91 | 0.17 | 0.65 | 176 | no expression of complete AV block was observed in any one out of four cases |
| 11 | 0.3 | 98 | 85 | CCCc1ccc(COc2ccc3c(c2)CCC(CN2CC(C(=O)O)C2)=C3C)c(OC)c1 |  |  |  |  |  |  |
